Yeast mating assay 2: variants of the scFv Ab-91

Antigen: PDVDLGDISGINAS, a 14-residue peptide of the SARS-CoV-2 spike HR2 region.

Each scFv is VL, a (GGGGS)3 linker, VH, as in the parent Ab-91, and differs from it in the CDRs of the heavy chain only.
VL: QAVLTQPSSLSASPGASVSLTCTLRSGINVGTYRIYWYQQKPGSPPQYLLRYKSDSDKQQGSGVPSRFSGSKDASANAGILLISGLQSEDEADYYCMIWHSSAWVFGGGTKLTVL
VH: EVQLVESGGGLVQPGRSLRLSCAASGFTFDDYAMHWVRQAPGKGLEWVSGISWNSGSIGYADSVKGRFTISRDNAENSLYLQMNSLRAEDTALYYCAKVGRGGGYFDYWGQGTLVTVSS

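Phage display of a naive human antibody library on the peptide gave the parent. In library AAYL51, one, two or three CDR residues were substituted; doubles and triples were drawn at random. The scFvs were displayed on barcoded MATa yeast, the peptide on MATalpha yeast. After mating in shaken culture at 30 °C for 16 h, diploids were selected and their barcode pairs sequenced. A regression on co-assayed BCL2-family reference pairs converts the normalised counts of each replicate to an apparent Kd. There are three technical replicates.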

Variants are written as CDR1, CDR2 and CDR3 of the heavy chain (limits as in the source). Parent: GFTFDDYAMH, GISWNSGSIGYADSVK, VGRGGGYFDY. The Kd shown is the geometric mean over detected replicates; a lower Kd is a better binder. Where no diploid with the target was found in any replicate, the entry reads "nd": below detection, most likely a poor binder, though not proof of it. Background: pairings of library AAYL51 with three empty control strains gave a value in 21% of cases (median 34 µM, 5th percentile 1.8 µM). Values in that range, when seen in few replicates, are hard to tell from nonspecific mating.

Variant NFTFDWYAMH | GISDNSGSIGYADSVK | VGRGGGYFDY showed nd (0 of 3 replicates).
Variant GFTFDDYAMH | GISWNSGLIGYADSNK | VNRGGGYFDY showed nd (0 of 3 replicates).
Variant GFRFTDYAMH | GISWNSGSIGYADSVK | VGCGGGYFDY showed 3.4 µM (2 of 3 replicates).
Variant GFTFDDYAMH | GISWNSLSIGYADSVK | VGRGGGYFAY showed 130 nM (3 of 3 replicates).
Variant GFTFDDYAMH | GKSWNSGSIGYADSVK | VGRGDGYFDT showed nd (0 of 3 replicates).
Variant GFTFDIYAMH | GISWNSGSIGYADSVK | VTAGGGYFDY showed 12 µM (2 of 3 replicates).
Variant GFTFDDYAMH | PQSWESGSIGYADSVK | VGRGGGYFDY showed nd (0 of 3 replicates).
Variant GFTFDDYAKE | GISWNWGSIGYADSVK | VGRGGGYFDY showed 880 µM (1 of 3 replicates).
Variant GFTFDDYAMH | GISWNSGSCGYADTVK | VGRGGGYFDD showed 17 µM (1 of 3 replicates).
Variant GFTDDDYAMH | GISWNSGGIGYADSVK | VGRGGGYFCY showed 65 µM (2 of 3 replicates).
Variant GVTFNDYAMH | GGSWNSGSIGYADSVK | VGRGGGYFDY showed 350 µM (2 of 3 replicates).
Variant GFNFDDYAMH | GISWTSGSIGYADSVK | VGRGGGYFDV showed 30 nM (3 of 3 replicates).
Variant GFTFDTYAMH | GWSWNSGSIGYARSVK | VGRGGGYFDY showed nd (0 of 3 replicates).
Variant GFTFDAYAMH | GISWNSGSIGYADSVK | VGRGGGYSDY showed nd (0 of 3 replicates).
Variant GFTLDDYAMH | GISWASGSIGYADSVK | VGRGGGYFDF showed nd (0 of 3 replicates).
Variant GFTFPDYAMH | GISWNTGSEGYADSVK | VGRGGGYFDY showed 69 nM (3 of 3 replicates).
Variant QFTFDDYAMH | GISWNSGSIGYADSIK | VGRFGGYFDY showed 6.2 µM (3 of 3 replicates).
Variant GFTFDDYAMH | GISWNSGSIGYADSVK | VGRGGGWFAY showed nd (0 of 3 replicates).
Variant GFTFDDFAMH | GISWNSGSIGYADSVK | VGRGGGMFDY showed 1.3 µM (3 of 3 replicates).
Variant LFTFDDYAMH | GISWNSGSCGYADVVK | VGRGGGYFDY showed nd (0 of 3 replicates).
Variant GFTFDDYAMH | GISWNSGSIGYADSVI | VGRALGYFDY showed 2.0 µM (1 of 3 replicates).
Variant GFTFDDYAMH | GISWNSGYIGYADSKK | VGRGGGYQDY showed nd (0 of 3 replicates).
Variant GFTFDDYAMH | GISWNSGSIGYADRVK | VVRGGGYADY showed nd (0 of 3 replicates).
Variant GFTFDDYAGH | GISWNSGSIGYADSVK | VGRGGMYFMY showed nd (0 of 3 replicates).
Variant GFTFDDYAMH | GISWNEGSIGYAQSVK | VGRGGGYFDY showed 7.0 µM (3 of 3 replicates).
Variant GGTFDDAAMH | GICWNSGSIGYADSVK | VGRGGGYFDY showed 16 µM (1 of 3 replicates).
Variant GFTWDDYAMH | GISWNSGSIGYAQSVK | VGRGGGCFDY showed nd (0 of 3 replicates).
Variant GFTFDDYAMT | GISWNSGSIGYADSVK | VGRQIGYFDY showed 13 µM (1 of 3 replicates).
Variant GFTFDDYAMH | GISTNSGSIGYAESVK | CGRGGGYFDY showed nd (0 of 3 replicates).
Variant GFTFDDYAMA | GISWNVGSIGYADSVK | VGRGGGKFDY showed nd (0 of 3 replicates).
Variant VFTFDDYAMH | GIGWNSGSIGYADSHK | VGRGGGYFDY showed nd (0 of 3 replicates).
Variant GSTFDDYAMH | GISWNSGSIGNADSVK | VGRGGGLFDY showed 19 µM (2 of 3 replicates).
Variant GFTFDDYAMH | GDSWNSGFIGYADSVK | VGRGGGYFIY showed nd (0 of 3 replicates).
Variant GFFFDDYAMH | GISWNSGSIGYADSVK | VHRGGGYFDY showed nd (0 of 3 replicates).
Variant GFTFDDYAMH | GISWNSGSIGYADSQK | VGHGGGYFDY showed 44 µM (1 of 3 replicates).
Variant GFTFDDYAPH | GISWNSGSIGYADSVG | VGRGGGVFDY showed nd (0 of 3 replicates).
Variant GFTFDDYAMH | GISWNSGSIGYADSVK | VGDGGGTFDY showed nd (0 of 3 replicates).
Variant GFTFDDYAMH | GISWNSTSIGYADSVK | VGRGGGDADY showed 1.2 µM (3 of 3 replicates).
Variant GFTFDDYAMH | GISWNSGSIGYADSAK | VGRGGGYILY showed 33 nM (3 of 3 replicates).

Values reported by Engelhart et al. 2022, doi:10.1038/s41597-022-01779-4 (FLAb copy).